Results taken from PubChem BioAssay (NCI).
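Grown in 96-well plates, cells were treated for 48 hours with each compound at five concentrations. Insufficient inhibition: endpoint recorded as highest concentration tested. At the GI50, growth is halved. TGI marks complete inhibition of growth.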

Legend:
Test in all cases: inhibition of tumour cell growth, NCI panel, 48 h
SK-MEL-2 melanoma = test system: SK-MEL-2 melanoma
NCI/ADR-RES ovarian = test system: NCI/ADR-RES ovarian
SK-OV-3 ovarian = test system: SK-OV-3 ovarian
T-47D breast = test system: T-47D breast
PC-3 prostate = test system: PC-3 prostate
RPMI-8226 leukemia = test system: RPMI-8226 leukemia
M14 melanoma = test system: M14 melanoma
SW-620 colon = test system: SW-620 colon
RXF 393 renal = test system: RXF 393 renal
CAKI-1 renal = test system: CAKI-1 renal
HCT-116 colon = test system: HCT-116 colon
OVCAR-4 ovarian = test system: OVCAR-4 ovarian
SNB-75 CNS = test system: SNB-75 CNS
MALME-3M melanoma = test system: MALME-3M melanoma
SK-MEL-5 melanoma = test system: SK-MEL-5 melanoma
A498 renal = test system: A498 renal
MOLT-4 leukemia = test system: MOLT-4 leukemia
OVCAR-3 ovarian = test system: OVCAR-3 ovarian
HT29 colon = test system: HT29 colon
IGROV1 ovarian = test system: IGROV1 ovarian
EKVX NSCLC = test system: EKVX NSCLC
MDA-MB-231 breast = test system: MDA-MB-231 breast
HS 578T breast = test system: HS 578T breast
NCI-H23 lung = test system: NCI-H23 lung
ACHN renal = test system: ACHN renal
OVCAR-8 ovarian = test system: OVCAR-8 ovarian
SK-MEL-28 melanoma = test system: SK-MEL-28 melanoma
KM12 colon = test system: KM12 colon
LOX IMVI melanoma = test system: LOX IMVI melanoma
NCI-H322M lung = test system: NCI-H322M lung
HCC-2998 colon = test system: HCC-2998 colon
K-562 leukemia = test system: K-562 leukemia
SN12C renal = test system: SN12C renal
MCF7 breast = test system: MCF7 breast
COLO 205 colon = test system: COLO 205 colon
A549 NSCLC = test system: A549 NSCLC
786-0 renal = test system: 786-0 renal
NCI-H460 lung = test system: NCI-H460 lung
HL-60(TB) leukemia = test system: HL-60(TB) leukemia
SR leukemia = test system: SR leukemia
HCT-15 colon = test system: HCT-15 colon
SF-539 CNS = test system: SF-539 CNS
NCI-H522 lung = test system: NCI-H522 lung
NCI-H226 lung = test system: NCI-H226 lung
SNB-19 CNS = test system: SNB-19 CNS
OVCAR-5 ovarian = test system: OVCAR-5 ovarian
SF-268 CNS = test system: SF-268 CNS
UACC-62 melanoma = test system: UACC-62 melanoma
CCRF-CEM leukemia = test system: CCRF-CEM leukemia
SF-295 CNS = test system: SF-295 CNS
HOP-62 NSCLC = test system: HOP-62 NSCLC
MDA-MB-435 = test system: MDA-MB-435
TK-10 renal = test system: TK-10 renal
UACC-257 melanoma = test system: UACC-257 melanoma
BT-549 breast = test system: BT-549 breast
U251 CNS = test system: U251 CNS
DU-145 prostate = test system: DU-145 prostate
UO-31 renal = test system: UO-31 renal

O=Cc1ccc(N(CCCl)CCCl)cc1Cl
GI50 (SK-MEL-2 melanoma): 28.7 µM
TGI (SK-MEL-2 melanoma): 78.8 µM
GI50 (NCI/ADR-RES ovarian): 22.9 µM
TGI (NCI/ADR-RES ovarian): > 100 µM
GI50 (SK-OV-3 ovarian): 11.1 µM
TGI (SK-OV-3 ovarian): 55.4 µM
GI50 (T-47D breast): 1.04 µM
TGI (T-47D breast): 18.4 µM
GI50 (PC-3 prostate): 24.9 µM
TGI (PC-3 prostate): > 100 µM
GI50 (RPMI-8226 leukemia): 13.8 µM
TGI (RPMI-8226 leukemia): 74.6 µM
GI50 (M14 melanoma): 58.8 µM
TGI (M14 melanoma): > 100 µM
GI50 (SW-620 colon): 17.8 µM
TGI (SW-620 colon): > 100 µM
GI50 (RXF 393 renal): 14.8 µM
TGI (RXF 393 renal): 51.7 µM
GI50 (CAKI-1 renal): 2.82 µM
TGI (CAKI-1 renal): 26.6 µM
GI50 (HCT-116 colon): 2.72 µM
TGI (HCT-116 colon): 28.5 µM
GI50 (OVCAR-4 ovarian): 2.8 µM
TGI (OVCAR-4 ovarian): 98.6 µM
GI50 (SNB-75 CNS): 24.4 µM
TGI (SNB-75 CNS): 86.9 µM
GI50 (MALME-3M melanoma): 26.1 µM
TGI (MALME-3M melanoma): 75.5 µM
GI50 (SK-MEL-5 melanoma): 11.3 µM
TGI (SK-MEL-5 melanoma): 27.2 µM
GI50 (A498 renal): 0.0435 µM
TGI (A498 renal): 0.172 µM
GI50 (MOLT-4 leukemia): 29.1 µM
TGI (MOLT-4 leukemia): 78.7 µM
GI50 (OVCAR-3 ovarian): 2.21 µM
TGI (OVCAR-3 ovarian): 6.43 µM
GI50 (HT29 colon): 19.7 µM
TGI (HT29 colon): 66.7 µM
GI50 (IGROV1 ovarian): 0.966 µM
TGI (IGROV1 ovarian): 11.3 µM
GI50 (EKVX NSCLC): 28.1 µM
TGI (EKVX NSCLC): > 100 µM
GI50 (MDA-MB-231 breast): 32.5 µM
TGI (MDA-MB-231 breast): 74.1 µM
GI50 (HS 578T breast): 64 µM
TGI (HS 578T breast): > 100 µM
GI50 (NCI-H23 lung): 6.78 µM
TGI (NCI-H23 lung): 70.7 µM
GI50 (ACHN renal): 31.7 µM
TGI (ACHN renal): > 100 µM
GI50 (OVCAR-8 ovarian): 25.1 µM
TGI (OVCAR-8 ovarian): > 100 µM
GI50 (SK-MEL-28 melanoma): 33.2 µM
TGI (SK-MEL-28 melanoma): > 100 µM
GI50 (KM12 colon): 42 µM
TGI (KM12 colon): > 100 µM
GI50 (LOX IMVI melanoma): 20.9 µM
TGI (LOX IMVI melanoma): 62.2 µM
GI50 (NCI-H322M lung): > 100 µM
TGI (NCI-H322M lung): > 100 µM
GI50 (HCC-2998 colon): 9.3 µM
TGI (HCC-2998 colon): 46.8 µM
GI50 (K-562 leukemia): 22.2 µM
TGI (K-562 leukemia): > 100 µM
GI50 (SN12C renal): 23.6 µM
TGI (SN12C renal): > 100 µM
GI50 (MCF7 breast): 0.641 µM
TGI (MCF7 breast): 27.6 µM
GI50 (COLO 205 colon): 5.86 µM
TGI (COLO 205 colon): 23.1 µM
GI50 (A549 NSCLC): 2.98 µM
TGI (A549 NSCLC): 53.6 µM
GI50 (786-0 renal): 22 µM
TGI (786-0 renal): 82.7 µM
GI50 (NCI-H460 lung): 0.139 µM
TGI (NCI-H460 lung): 12.1 µM
GI50 (HL-60(TB) leukemia): 26.8 µM
TGI (HL-60(TB) leukemia): 73.3 µM
GI50 (SR leukemia): 49.2 µM
TGI (SR leukemia): > 100 µM
GI50 (HCT-15 colon): 29.5 µM
TGI (HCT-15 colon): > 100 µM
GI50 (SF-539 CNS): 27.4 µM
TGI (SF-539 CNS): 77.9 µM
GI50 (NCI-H522 lung): 54.4 µM
TGI (NCI-H522 lung): > 100 µM
GI50 (NCI-H226 lung): 0.0351 µM
TGI (NCI-H226 lung): 0.226 µM
GI50 (SNB-19 CNS): 32.9 µM
TGI (SNB-19 CNS): > 100 µM
GI50 (OVCAR-5 ovarian): 0.861 µM
TGI (OVCAR-5 ovarian): 7.83 µM
GI50 (SF-268 CNS): 31.3 µM
TGI (SF-268 CNS): > 100 µM
GI50 (UACC-62 melanoma): 0.38 µM
TGI (UACC-62 melanoma): 4.1 µM
GI50 (CCRF-CEM leukemia): 6.42 µM
TGI (CCRF-CEM leukemia): > 100 µM
GI50 (SF-295 CNS): 0.425 µM
TGI (SF-295 CNS): 9.47 µM
GI50 (HOP-62 NSCLC): 3.67 µM
TGI (HOP-62 NSCLC): 46.6 µM
GI50 (MDA-MB-435): 40.3 µM
TGI (MDA-MB-435): > 100 µM
GI50 (TK-10 renal): 0.384 µM
TGI (TK-10 renal): 2.45 µM
GI50 (UACC-257 melanoma): 0.368 µM
TGI (UACC-257 melanoma): 2.31 µM
GI50 (BT-549 breast): 39.7 µM
TGI (BT-549 breast): > 100 µM
GI50 (U251 CNS): 7.61 µM
TGI (U251 CNS): 50.5 µM
GI50 (DU-145 prostate): 18.8 µM
TGI (DU-145 prostate): 98.9 µM
GI50 (UO-31 renal): 18.4 µM
TGI (UO-31 renal): 73 µM
